For one molecule, IC50 results are on record in US20050271676A1, “Inducing cellular immune responses to human immunodeficiency virus-1 using peptide and nucleic acid compositions” (Epimmune Inc., priority 1993, published 2005).

Sequences of proteins named here, by UniProt entry; tags and fusion partners are left off. Residues count along the entry.
UniProt P01903, 26-254: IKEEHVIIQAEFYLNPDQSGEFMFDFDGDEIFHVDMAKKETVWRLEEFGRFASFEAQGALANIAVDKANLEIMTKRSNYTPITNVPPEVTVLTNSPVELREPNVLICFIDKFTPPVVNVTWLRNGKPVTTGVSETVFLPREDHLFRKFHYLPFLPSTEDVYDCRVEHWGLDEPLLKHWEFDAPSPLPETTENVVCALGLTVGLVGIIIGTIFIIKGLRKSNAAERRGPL
UniProt P01911, 30-266: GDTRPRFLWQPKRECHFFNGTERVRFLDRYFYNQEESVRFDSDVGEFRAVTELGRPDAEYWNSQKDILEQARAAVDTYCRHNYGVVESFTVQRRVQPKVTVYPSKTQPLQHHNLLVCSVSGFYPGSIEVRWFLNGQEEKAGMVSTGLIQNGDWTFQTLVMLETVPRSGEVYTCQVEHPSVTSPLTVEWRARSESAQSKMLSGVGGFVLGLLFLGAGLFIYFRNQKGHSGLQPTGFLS

The target in this assay is T1, HLA-DRB1*1501 (DR2w2β1) (Homo sapiens, UniProt P01903+P01911).
T1 construct: expressed in transfected cells
The assay is described as follows: purified HLA class II binding assay, DRB1*1501 (DR2w2β1).

Broadly, the IC50 is the concentration at which inhibition is half-maximal. For the molecule `CC[C@H](C)[C@H](NC(=O)[C@H](CO)NC(=O)[C@@H]1CCCN1C(=O)[C@@H](NC(=O)[C@@H](NC(=O)[C@H](Cc1ccccc1)NC(=O)[C@H](C)NC(=O)[C@@H](NC(=O)[C@H](Cc1ccc(O)cc1)NC(=O)[C@H](CCCCN)NC(=O)[C@H](CCCNC(=N)N)NC(=O)[C@@H](N)Cc1ccccc1)[C@@H](C)O)[C@@H](C)O)[C@@H](C)CC)C(=O)N[C@@H](CC(N)=O)C(=O)N[C@@H](CC(N)=O)C(=O)N[C@@H](CCC(=O)O)C(=O)O` [Peptide 27.0341], the half-maximal inhibitory concentration (IC50) was determined as 70 nM.
